In patent US10793528B2 (priority 2016, dated 2020) one finds Ki data, which are given here for two molecules.

Protein sequences, listed by entry. Tags and fused reporters are not part of them. Lines headed by an entry give the natural chain unless they say otherwise; changes in a name come on top.
UniProt P35372, whole entry, looked up: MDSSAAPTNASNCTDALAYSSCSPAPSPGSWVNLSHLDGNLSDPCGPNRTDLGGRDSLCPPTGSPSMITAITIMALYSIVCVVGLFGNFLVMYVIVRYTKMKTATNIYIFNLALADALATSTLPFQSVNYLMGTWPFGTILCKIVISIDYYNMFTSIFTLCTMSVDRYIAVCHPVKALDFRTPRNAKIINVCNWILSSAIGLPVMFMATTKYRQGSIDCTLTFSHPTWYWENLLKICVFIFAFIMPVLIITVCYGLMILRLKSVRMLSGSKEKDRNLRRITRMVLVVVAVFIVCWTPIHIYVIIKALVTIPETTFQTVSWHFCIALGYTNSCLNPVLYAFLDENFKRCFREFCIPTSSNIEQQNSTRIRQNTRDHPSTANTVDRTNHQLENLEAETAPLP
UniProt P41146: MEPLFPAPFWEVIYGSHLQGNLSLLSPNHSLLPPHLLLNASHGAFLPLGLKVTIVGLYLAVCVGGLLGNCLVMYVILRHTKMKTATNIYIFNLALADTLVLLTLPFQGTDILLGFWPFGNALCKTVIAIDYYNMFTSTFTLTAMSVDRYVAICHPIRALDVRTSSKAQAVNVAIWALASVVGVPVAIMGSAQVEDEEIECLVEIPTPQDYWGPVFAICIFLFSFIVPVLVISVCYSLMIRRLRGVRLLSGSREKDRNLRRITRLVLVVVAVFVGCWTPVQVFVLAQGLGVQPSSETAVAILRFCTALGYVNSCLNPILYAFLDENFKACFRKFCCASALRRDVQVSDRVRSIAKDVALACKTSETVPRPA

Test [1] has as its target human mu-opioid receptor (hMOP) (Homo sapiens (Human), UniProt P35372). Nature of the test: hMOP receptor binding assay (SPA, [3H]naloxone). As to conditions: read-out: hMOP Ki.
Test [2] concerns the target human nociceptin/orphanin FQ peptide receptor (hNOP) (Homo sapiens (Human), UniProt P41146). Nature of the test: hNOP receptor binding assay (SPA, [3H]nociceptin). Conditions: read-out: hNOP Ki.

For orientation: Ki means a dissociation constant, usually derived from enzyme kinetics or from competition with a known ligand. Consider `CN(C)C1(c2ccccc2)CCC2(CC1)CN(CCC(=O)N1CC[C@H](O)[C@H](O)C1)C(=O)N2CC1CCC1` (relative stereo), for which the values for the Ki in test [1] and in test [2] were 33 nM and 6.6 nM, respectively.

With `CN(C)C1(c2ccccc2)CCC2(CC1)CN(CCC(=O)N1C[C@@H](O)[C@@H](O)C1)C(=O)N2CC1CCC1` (relative stereo), the figures for the Ki in test [1] and in test [2] were 24.5 nM and 10.6 nM, respectively.
